Each molecule was assayed on IFN-β secretion in THP1 cells (assay: IFN-β secretion in THP1 cell culture (5 h)). Details: not given.
Assay type: cell-based, human
Experimental: The ability of compounds to stimulate the secretion of interferon-beta from THP1 cells was measured using a human IFN-β AlphaLISA kit (Perkin Elmer, Cat. No. AL265F). The basic protocol is as follows:
The cell viability and count was ascertained using a Beckman Coulter V-Cell XR cell counter. The cells suspension was centrifuged at 200×g for 5 min at RT. […] Subsequent liquid transfers were performed using either a Matrix electronic multichannel pipette or an Agilent Bravo Automated Liquid Handling Platform.
The assay was started by dispensing 40 μL of the previously prepared cell suspension into the wells of the plate containing compounds. After 5 h incubation at 37° C., 5% CO2 in a humidified atmosphere, the plate of cells and compounds was centrifuged at 200×g for 5 min at RT. […] To these supernatant-containing wells was added 10 μL of 5× Anti-Analyte Acceptor beads (50 μg/mL of AlphaLISA HiBlock Buffer) and incubated for 30 min at RT while shaking on an orbital plate shaker. To each well was added 10 μL of 5× Biotinylated Antibody Anti-analyte (5 nM in AlphaLISA HiBlock Buffer) and incubated on an orbital plate shaker for 60 min at RT or overnight at 4° C. To each well was added 25 μL of 2× SA-Donor beads (80 μg/mL in AlphaLISA HiBlock Buffer) and incubated for 30-45 min at RT in the dark while shaking on an orbital plate shaker. The plate was then read on a Perkin Elmer Envision (λex=680 nm, λem=[…]). The percent effect of the AlphaLISA signal at each compound concentration was calculated based on 30 uM cGAMP positive controls and 0.3% DMSO negative controls. The plot of percent effect versus the log of compound concentration was fit with a 4-parameter concentration response equation to calculate EC50 values.
Compounds of the disclosure were evaluated for IFN-β secretion in THP1 cell culture as described above.

| Structure (SMILES) | % Effect at 30 μM relative to 2′3′-cGAMP [%] |
| --- | --- |
| Nc1nc2c(ncn2[C@@H]2O[C@@H]3COP(=O)(O)OC4[C@@H](COP(=O)(O)OC2C3)O[C@@H](n2cnc3c(N)ncnc32)[C@H]4F)c(=O)[nH]1 (stereo in doubt) [Example 25, 2-amino-9-[(5S,7R,8R,12aR,14R,15S,15aR)-14-(6-amino-9H-purin-9-yl)-15-fluoro-2,10-dihydroxy-2,10-dioxidooctahydro-12H-5,8-methanofuro[3,2-l][1,3,6,9,11,2,10]pentaoxadiphosphacyclotetradecin-7-yl]-1,9-dihydro-6H-purin-6-one] | 145 |

Same assay, conditions: IFN-β secretion in THP1 cell culture, 5 h; compound at 30 μM; percent activation relative to 2′3′-cGAMP

| Structure (SMILES) | % Effect at 30 μM relative to 2′3′-cGAMP [%] |
| --- | --- |
| Nc1nc2c(ncn2[C@@H]2O[C@@H]3COP(=O)(O)O[C@H]4C[C@H](n5cnc6c(N)ncnc65)O[C@@H]4COP(=O)(O)O[C@@H]2[C@@H]3O)c(=O)[nH]1 [Example 1, (5R,7R,8R,12aR,14R,15aS,16R)-7-(2-amino-6-oxo-1,6-dihydro-9-purin-9-yl)-14-(6-amino-9-purin-9-yl)-16-hydroxyoctahydro-12H-5,8-methanofuro[3,2-l][1,3,6,9,11,2,10]pentaoxadiphosphacyclotetradecine-2,10-diolate 2,10-dioxide] | 154 |
| Nc1nc2c(ncn2[C@@H]2O[C@@H]3COP(=O)(O)OC4C[C@H](n5cnc6c(N)ncnc65)O[C@@H]4COP(=O)(O)O[C@H]2C3O)c(=O)[nH]1 (stereo partly drawn) [Example 3, (5R,7R,8R,12aR,14R,15aS,16R)-7,14-bis(6-amino-9H-purin-9-yl)-16-hydroxyoctahydro-12H-5,8-methanofuro[3,2-l] [1,3,6,9,11,2,10]pentaoxadiphosphacyclotetradecine-2,10-diolate 2,10-dioxide] | 149 |
| Nc1nc2c(ncn2[C@@H]2O[C@@H]3COP(=O)(O)O[C@H]4[C@H]5OC[C@]4(COP(=O)(O)O[C@@H]2[C@@H]3F)O[C@H]5n2cnc3c(N)ncnc32)c(=O)[nH]1 [Example 20, (5R,7R,8S,12aR,14R,15R,15aS,18R)-7-(2-amino-6-oxo-1,6-dihydro-9H-purin-9-yl)-14-(6-amino-9H-purin-9-yl)-18-fluorohexahydro-14H-15,12a-(epoxymethano)-5,8-methanofuro[3,2-l][1,3,6,9,11,2,10]pentaoxadiphosphacyclotetradecine-2,10(12H)-diolate 2,10-dioxide] | 159 |
| Nc1nc2c(ncn2[C@@H]2O[C@@H]3COP(=O)(O)O[C@H]4[C@@H](F)[C@H](n5cnc6c(N)ncnc65)O[C@@H]4COP(=O)(O)O[C@@H]2C3)c(=O)[nH]1 [Example 21, 2-amino-9-[(5S,7R,8R,12aR,14R,15R,15aR)-14-(6-amino-9H-purin-9-yl)-15-fluoro-2,10-dihydroxy-2,10-dioxidooctahydro-12H-5,8-methanofuro[3,2-l][1,3,6,9,11,2,10]pentaoxadiphosphacyclotetradecin-7-yl]-1,9-dihydro-6H-purin-6-one] | 142 |
| Nc1nc2c(ncn2[C@@H]2O[C@@H]3COP(=O)(O)O[C@H]4[C@@H](F)[C@H](n5cnc6c(N)ncnc65)O[C@@H]4COP(O)(=S)O[C@@H]2[C@@H]3F)c(=O)[nH]1 (stereo partly drawn) [Example 289, 2-amino-9-[(5R,7R,8S,12aR,14R,15R,15aR,16R)-14-(6-amino-9H-purin-9-yl)-15,16-difluoro-2,10-dihydroxy-2-oxido-10-sulfidooctahydro-12H-5,8-methanofuro[3,2-l][1,3,6,9,11,2,10]pentaoxadiphosphacyclotetradecin-7-yl]-1,9-dihydro-6H-purin-6-one] | 58 |

— patent publication US11453697B1, “Cyclic di-nucleotide compounds as sting agonists” (Merck Sharp & Dohme Corp., priority 2015, dated 2022)
